DBAASP
≈ marks a conversion by molar mass, not a printed value.

Columns and labels:
Assay in all cases: ≥ marks a high value that may be exact or a test limit, other limits are often not marked, values filed in µg/mL are converted to µM
[1] = test system: Erwinia amylovora PMV 6076
[2] = test system: Xanthomonas campestris pv. Vesicatoria 2133-2
[3] = test system: Pseudomonas syringae pv. syringae EPS 94
[4] = test system: Streptococcus pyogenes M1T1 5448
[5] = test system: Pseudomonas aeruginosa PAO1
[6] = test system: Staphylococcus aureus USA 300
[7] = test system: Escherichia coli BL21

CC[C@H](C)[C@H](NC(=O)CNC(=O)[C@H](CC(C)C)NC(=O)[C@H](Cc1ccc(O)cc1)NC(=O)[C@H](CCCCN)NC(=O)[C@H](CC(C)C)NC(=O)[C@@H](NC(=O)[C@H](CCCCN)NC(=O)[C@H](CCCCN)NC(=O)[C@H](Cc1ccccc1)NC(=O)[C@H](CC(C)C)NC(=O)[C@H](CCCCN)NC(=O)[C@@H](N)CCCCN)[C@@H](C)CC)C(=O)NCC(=O)N[C@@H](CCCCN)C(=O)N[C@@H](Cc1ccccc1)C(=O)N[C@@H](CC(C)C)C(=O)N[C@@H](Cc1cnc[nH]1)C(=O)N[C@@H](CO)C(=O)N[C@@H](C)C(=O)N[C@@H](CCCCN)C(=O)O [KKLFKKILKYLGIGKFLHSAK]
MIC [1]: 6.12 µM (≈ 15.1 µg/mL)
MIC [2]: 3.54 µM (≈ 8.7 µg/mL)
MIC [3]: 3.54 µM (≈ 8.7 µg/mL)

CC[C@H](C)[C@H](NC(=O)[C@H](CO)NC(=O)[C@H](CCC(=O)O)NC(=O)[C@H](CCCN=C(N)N)NC(=O)CNC(=O)[C@H](C)N)C(=O)N[C@@H](CCCCN)C(=O)N[C@@H](C)C(=O)N[C@@H](Cc1ccc(O)cc1)C(=O)N[C@@H](CC(C)C)C(=O)N[C@@H](CCCCN)C(=O)N[C@@H](CCCCN)C(=O)N[C@@H](CCC(=O)O)C(=O)N[C@H](C(=O)N[C@@H](CCCCN)C(=O)N[C@@H](CCCCN)C(=O)N[C@@H](CCCCN)C(=O)NCC(=O)N[C@@H](CCCCN)C(=O)N[C@@H](CCCN=C(N)N)C(=O)N[C@@H](C)C(=O)N[C@H](C(=O)N[C@H](C(=O)N[C@@H](C)C(=O)N[C@@H](Cc1c[nH]c2ccccc12)C(=O)O)[C@@H](C)CC)C(C)C)[C@@H](C)CC [AGRESIKAYLKKEIKKKGKRAVIAW]
MIC [4]: ≥ 32 µM
MIC [5]: > 128 µM
MIC [6]: ≥ 128 µM
MIC [7]: ≥ 32 µM
